Literature values in US11096924B2, “Combination therapies using immuno-dash inhibitors and PGE2 antagonists” (Trustees of Tufts College, priority 2016, dated 2021).

Details: cited from earlier work

Compound: CC(C)[C@H](N)C(=O)N1CCC[C@H]1B(O)O [Val-boroPro, Valine-boroProline]
- adverse events reported on treatment (human, in vivo): immune-related adverse events (irAEs), including pneumonitis
- most commonly reported adverse event (human, in vivo): edema/peripheral swelling, hypotension or dehydration/hypovolemia
- improvement in grade 3 neutropenia (phase I trial, thirteen patients treated concomitantly with immunosuppressive chemotherapy): five patients showed improvement in grade 3 neutropenia
- efficacy endpoints (phase II trials in combination with standard cytotoxic chemotherapy): did not meet the endpoints for efficacy
